In patent publication US8796250B2, “Diaryl ureas for diseases mediated by PDGFR” (Bayer Healthcare LLC, priority 2003, dated 2014):
pIC50: −log10 of the molar value.

Sequences of proteins named here, by UniProt entry; tags and fusion partners are left off. Residues count along the entry.
UniProt P05622, 32-1098: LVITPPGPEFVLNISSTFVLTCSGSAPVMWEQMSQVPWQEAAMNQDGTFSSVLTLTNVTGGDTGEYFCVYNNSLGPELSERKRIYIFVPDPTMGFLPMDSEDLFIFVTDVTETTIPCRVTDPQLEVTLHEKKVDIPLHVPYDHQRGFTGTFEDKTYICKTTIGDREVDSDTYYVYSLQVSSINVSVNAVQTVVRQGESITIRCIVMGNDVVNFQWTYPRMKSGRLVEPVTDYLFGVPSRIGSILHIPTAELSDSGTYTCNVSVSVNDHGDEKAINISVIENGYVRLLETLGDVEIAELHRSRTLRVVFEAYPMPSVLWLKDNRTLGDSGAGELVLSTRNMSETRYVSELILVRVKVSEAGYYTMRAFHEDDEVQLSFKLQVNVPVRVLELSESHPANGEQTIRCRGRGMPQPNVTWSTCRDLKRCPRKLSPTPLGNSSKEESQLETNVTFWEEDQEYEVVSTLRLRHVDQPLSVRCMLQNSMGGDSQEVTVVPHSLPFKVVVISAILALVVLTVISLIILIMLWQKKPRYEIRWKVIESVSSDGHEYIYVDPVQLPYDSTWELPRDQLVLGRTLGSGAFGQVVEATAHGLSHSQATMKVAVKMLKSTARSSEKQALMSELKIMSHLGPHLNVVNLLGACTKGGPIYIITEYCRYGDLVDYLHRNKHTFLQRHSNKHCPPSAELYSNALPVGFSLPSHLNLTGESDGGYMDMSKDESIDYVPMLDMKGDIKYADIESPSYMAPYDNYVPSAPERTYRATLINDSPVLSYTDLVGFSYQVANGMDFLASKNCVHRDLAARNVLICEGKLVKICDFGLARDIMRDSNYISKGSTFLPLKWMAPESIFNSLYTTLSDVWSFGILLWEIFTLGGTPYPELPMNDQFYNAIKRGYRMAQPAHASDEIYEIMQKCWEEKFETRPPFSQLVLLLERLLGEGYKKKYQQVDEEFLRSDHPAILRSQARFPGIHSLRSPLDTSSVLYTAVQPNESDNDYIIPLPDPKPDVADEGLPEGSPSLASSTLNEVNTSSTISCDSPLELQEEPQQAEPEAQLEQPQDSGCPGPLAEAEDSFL

Molecular target: T1, mouse PDGFR (PDGFR beta) (Mus musculus, UniProt P05622)
T1 construct: made in house
Assay: Murine PDGFR FRET Biochemical Assay
Conditions: 1 nM mouse PDGFR, 20 μM ATP, TR-FRET; read-out: IC50 in biochemical assay (inhibition of PDGFR)
Text: Murine PDGFR FRET Biochemical Assay
Reaction is initiated upon addition of enzyme.

pIC50: > 5.00
Compound: CNC(=O)c1cc(Oc2ccc(NC(=O)Nc3ccc(Cl)c(C(F)(F)F)c3)c(F)c2)ccn1 [N-(4-chloro-3-(trifluoromethyl)phenyl)-N′-(4-(2-(N-methylcarbamoyl)-4-pyridyloxy)-2-fluorophenyl) urea]
